Molecular target: T1, FV-810 (Homo sapiens, UniProt P12259, DEL839-1519)
T1 construct: amino acids 1-28 are a signal peptide that is cleaved and numbering begins at residue 29; made in house
Assay: Displacement of OG488-BR from preformed OG488-BR/FV-810 complex (fluorescence anisotropy)
Type: binding
Details: 30 nM OG488-BR, 20 nM FV-810, 50 μM PCPS

Sequences of proteins named here, by UniProt entry; tags and fusion partners are left off. A line that says so, or that is headed by a name, gives the form on record, which may keep a tag or linker.
UniProt P12259, with tags, fused parts or gaps DEL839-1519: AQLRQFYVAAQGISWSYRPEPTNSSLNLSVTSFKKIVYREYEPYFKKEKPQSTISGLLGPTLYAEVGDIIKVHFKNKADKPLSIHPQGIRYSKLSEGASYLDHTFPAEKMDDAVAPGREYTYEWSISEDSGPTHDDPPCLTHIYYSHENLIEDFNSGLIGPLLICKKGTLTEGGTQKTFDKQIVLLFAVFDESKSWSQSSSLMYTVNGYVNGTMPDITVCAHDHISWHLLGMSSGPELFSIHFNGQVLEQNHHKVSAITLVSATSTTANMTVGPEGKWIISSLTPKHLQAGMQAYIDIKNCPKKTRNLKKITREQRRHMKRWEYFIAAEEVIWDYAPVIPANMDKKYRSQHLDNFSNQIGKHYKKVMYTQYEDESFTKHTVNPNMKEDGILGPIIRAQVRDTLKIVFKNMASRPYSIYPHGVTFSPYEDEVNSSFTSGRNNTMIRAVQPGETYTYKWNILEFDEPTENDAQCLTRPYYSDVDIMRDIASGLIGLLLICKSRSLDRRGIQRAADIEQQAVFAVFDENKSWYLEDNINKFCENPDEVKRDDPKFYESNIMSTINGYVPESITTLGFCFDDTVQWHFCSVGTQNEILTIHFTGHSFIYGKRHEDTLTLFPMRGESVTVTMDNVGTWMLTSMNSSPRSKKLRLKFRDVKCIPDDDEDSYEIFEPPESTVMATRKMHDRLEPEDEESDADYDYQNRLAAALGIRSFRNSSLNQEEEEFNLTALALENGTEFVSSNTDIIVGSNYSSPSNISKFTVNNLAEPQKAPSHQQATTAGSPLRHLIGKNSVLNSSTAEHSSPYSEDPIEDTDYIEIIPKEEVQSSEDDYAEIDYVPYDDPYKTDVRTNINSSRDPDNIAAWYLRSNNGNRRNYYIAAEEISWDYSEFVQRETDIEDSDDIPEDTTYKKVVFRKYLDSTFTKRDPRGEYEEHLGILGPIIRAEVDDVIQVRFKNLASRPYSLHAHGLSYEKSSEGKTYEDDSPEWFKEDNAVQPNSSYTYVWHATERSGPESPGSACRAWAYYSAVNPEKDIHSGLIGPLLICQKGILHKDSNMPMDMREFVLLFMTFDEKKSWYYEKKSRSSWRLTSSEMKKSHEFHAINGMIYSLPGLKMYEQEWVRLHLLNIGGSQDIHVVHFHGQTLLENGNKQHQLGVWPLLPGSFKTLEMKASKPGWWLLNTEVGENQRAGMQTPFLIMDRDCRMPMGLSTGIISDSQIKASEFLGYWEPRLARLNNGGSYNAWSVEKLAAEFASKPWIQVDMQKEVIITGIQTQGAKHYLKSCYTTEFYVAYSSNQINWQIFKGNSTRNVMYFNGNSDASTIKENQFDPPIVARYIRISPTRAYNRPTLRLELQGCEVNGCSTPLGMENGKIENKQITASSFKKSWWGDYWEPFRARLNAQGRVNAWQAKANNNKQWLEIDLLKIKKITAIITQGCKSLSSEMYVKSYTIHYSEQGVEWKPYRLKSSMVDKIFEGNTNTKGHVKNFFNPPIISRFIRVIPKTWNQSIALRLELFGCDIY

Question: What does the source list for “FXaS195A: catalytically inactive Factor Xa S195A [reference compound]”?
Answer: stoichiometry n, FXa: 1.1±0.07 mol of FXa/mol of FV-810; stoichiometry n, FXa (listed as FXa^S195A): 1.1 mol of FXa/mol of FV-810
